Data as given in PubChem BioAssay AID651687 (Broad Institute, 2012).
This is a selection; strong and weak results do not stand in their true shares. Some tests of the compounds listed are not included; inactive here does not mean inactive elsewhere. Activity calls are given as the source filed them.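 How the source made its calls: active means every replicate shows inhibition of at least 40%; inconclusive means mean inhibition at least 40% but some replicate below; inactive means the rest.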

assay: inhibitors of PGC1a acetylation signal, primary screen, cell-based, U2OS, AlphaScreen, inhibitor mode (AID 651687); conditions: AlphaScreen anti-acetyl-lysine, at 15.6 µM, active compounds read high, with virally co-expressed GCN5 acetyltransferase;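 further: 0% = neutral control wells and 100% = positive control wells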

Compound	inhibition
O=C(OC1CN2CCC1CC2)C(CO)(c1ccccc1)c1ccccc1 (configuration not stated)	inactive: -9.06%
C=C(C)C#CC(O)(C(=O)OC1CCN(C)CC1)c1ccccc1 (configuration not stated)	inactive: -8.88%
COc1ccc(Br)c(C(=O)NCC2(N3CCCCC3)CCCCC2)c1	inactive: 6.44%
O=C(OCCN1CCCC1)C(O)(c1ccccc1)c1ccccc1	inactive: -1.12%
CC(C)Oc1ccc(C(=O)NCC2(N(C)C)CCCCC2)cc1	inactive: 1.03%
CN(C)c1cccc(C(=O)NCC2(N(C)C)CCCCC2)c1	inactive: 3.19%
CN(C)C1(CNC(=O)c2ccc(Br)cc2)CCCCC1	inactive: 1.06%
COc1ccc(Cl)cc1C(=O)NCC1(N(C)C)CCCCC1	inactive: 34.1%
COc1cccc(C(=O)NCC2(N3CCCCC3)CCCCC2)c1	inactive: -1.83%
O=C(NCC1(N2CCCCC2)CCCCC1)c1cccc(Cl)c1	inactive: 2.27%
CN(C)c1ccc(C(=O)NCC2(N(C)C)CCCCC2)cc1	inactive: 12.8%
C=CCN1CCN(CCOC(=O)C(O)(c2ccccc2)c2ccccc2)CC1	inactive: 2.98%
COc1ccc(C(=O)NCC2(N(C)C)CCCCC2)cc1	inactive: 4.3%
O=C(NCC1(N2CCCCC2)CCCCC1)c1cccc(Br)c1	inactive: -17.6%
CN1[C@@H]2CC[C@H]1CC(OC(=O)C(O)(c1ccccc1)c1ccccc1)C2 (some centres not stated)	inactive: 9.88%
CCN(CC)CC(C)C(C)OC(=O)C(O)(c1ccccc1)c1ccccc1 (configuration not stated)	inactive: 10.1%
CC(C)N1C(=O)CC2(CCN(CCOC(=O)C(O)(c3ccccc3)c3ccccc3)CC2)C1=O	inactive: 3.91%
